Reference: ChEMBL document CHEMBL1155527 (J Med Chem, 2010)

Amino acid sequences for entries named in this document (tags omitted).
UniProt Q05941, whole entry: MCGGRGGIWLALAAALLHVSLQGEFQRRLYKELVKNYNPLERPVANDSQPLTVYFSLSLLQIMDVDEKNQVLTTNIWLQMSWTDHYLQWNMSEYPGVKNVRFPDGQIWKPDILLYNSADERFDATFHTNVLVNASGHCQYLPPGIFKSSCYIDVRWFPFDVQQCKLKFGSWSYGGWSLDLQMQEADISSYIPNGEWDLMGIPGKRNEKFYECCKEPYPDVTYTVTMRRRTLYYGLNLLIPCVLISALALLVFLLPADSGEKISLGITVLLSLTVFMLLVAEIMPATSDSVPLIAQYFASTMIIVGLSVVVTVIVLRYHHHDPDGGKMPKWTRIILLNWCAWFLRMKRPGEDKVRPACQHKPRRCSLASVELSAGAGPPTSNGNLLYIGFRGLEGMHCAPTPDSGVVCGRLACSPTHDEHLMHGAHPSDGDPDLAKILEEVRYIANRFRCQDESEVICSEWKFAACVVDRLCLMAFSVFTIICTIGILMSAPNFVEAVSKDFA

Columns and labels:
[1] = molecular target: T1, Neuronal acetylcholine receptor subunit alpha-7 (Rattus norvegicus, UniProt Q05941); assay: Displacement of [3H]epibatidine from rat alpha7 nAChR expressed in rat GH4C1 cells; type: cell-based, GH4-C1
[2] = molecular target: T1, Neuronal acetylcholine receptor subunit alpha-7; assay: Agonist activity at rat alpha7 nAChR expressed in rat GH4C1 cells by whole cell patch-clamp electrophysiology; type: functional, cell-based, GH4-C1

In the case of `O=C(NCCCCN1CCCCC1)Nc1ccc(-c2ccc(F)cc2)nc1`, the Ki [1] is reported as 44 nM and the EC50 [2] is reported as 490 nM.
